Values quoted from earlier work, collected in publication PMC7792944, “Pharmacological Characterization of µ-Opioid Receptor Agonists with Biased G Protein or β-Arrestin Signaling, and Computational Study of Conformational Changes during Receptor Activation” (Molecules, 2020).

Tested on: MOP
Details: dissociation from MOP; ref [43]; cited from earlier work

Substance: buprenorphine
- residence time, higher than that of TRV130: 18 fold
